Measured values from patent publication US20250011788A1, “NUCLEIC ACID INTERFERENCE PHARMACEUTICAL COMPOSITION, AND DRUG FOR TREATING COLORECTAL CANCER, GASTRIC CANCER, AND PROSTATE CANCER” (SIRNAOMICS BIOPHARMACEUTICALS (SUZHOU) CO., LTD., priority 2022, published 2025).

Test system: MKN45 cells tumor xenograft
Assay: Mouse subcutaneous tumor xenograft model of gastric cancer MKN45 cells
Details: STP500 3 mg/kg i.v. Q2D, Oxaliplatin 7.5 mg/kg i.p. QD

For `O=C1[O][Pt]2([NH][C@@H]3CCCC[C@H]3[NH]2)[O]C1=O` [Oxaliplatin], the “effect on the weight of mice” value was “decreased”.
